Paper PMC10556141, “Yeast Rad52 is a homodecamer and possesses BRCA2-like bipartite Rad51 binding modes” (Nature Communications, 2023)

Molecular target: T1, Saccharomyces cerevisiae Rad52 (full-length) (S. cerevisiae)
T1 construct: Rad52, S. cerevisiae, full length; predicted mass of one subunit 52.4 kDa; constructs reach residue 471; Homodecamer by AUC, mass photometry and cryo-EM; The CBD was removed by elution from chitin resin with 50 mM DTT (pTXB1 plasmid); also called yeast Rad52; source: E. coli Rosetta-2 PlysS, purified (chitin resin, heparin, Q-Sepharose, Superdex-200 SEC); copies: 10
Assay: AUC; sedimentation velocity, 40,000 rpm, 20 °C; 30 mM HEPES pH 7.8, 100 mM KCl, 10% glycerol, 1 mM TCEP; absorbance at 280 nm; c(s) model in SEDFIT; no ssDNA
Conditions: both partners purified

binding result: binds
B1: S. cerevisiae Replication Protein A (RPA) (complex)
chain 1: MSSVQLSRGDFHSIFTNKQRYDNPTGGVYQVYNTRKSDGANSNRKNLIMISDGIYHMKALLRNQAASKFQSMELQRGDIIRVIIAEPAIVRERKKYVLLVDDFELVQSRADMVNQTSTFLDNYFSEHPNETLKDEDITDSGNVANQTNASNAGVPDMLHSNSNLNANERKFANENPNSQKTRPIFAIEQLSPYQNVWTIKARVSYKGEIKTWHNQRGDGKLFNVNFLDTSGEIRATAFNDFATKFNEILQEGKVYYVSKAKLQPAKPQFTNLTHPYELNLDRDTVIEECFDESNVPKTHFNFIKLDAIQNQEVNSNVDVLGIIQTINPHFELTSRAGKKFDRRDITIVDDSGFSISVGLWNQQALDFNLPEGSVAAIKGVRVTDFGGKSLSMGFSSTLIPNPEIPEAYALKGWYDSKGRNANFITLKQEPGMGGQSAASLTKFIAQRITIARAQAENLGRSEKGDFFSVKAAISFLKVDNFAYPACSNENCNKKVLEQPDGTWRCEKCDTNNARPNWRYILTISIIDETNQLWLTLFDDQAKQLLGVDANTLMSLKEEDPNEFTKITQSIQMNEYDFRIRAREDTYNDQSRIRYTVANLHSLNYRAEADYLADELSKALLA
chain 2: MATYQPYNEYSSVTGGGFENSESRPGSGESETNTRVNTLTPVTIKQILESKQDIQDGPFVSHNQELHHVCFVGVVRNITDHTANIFLTIEDGTGQIEVRKWSEDANDLAAGNDDSSGKGYGSQVAQQFEIGGYVKVFGALKEFGGKKNIQYAVIKPIDSFNEVLTHHLEVIKCHSIASGMMKQPLESASNNNGQSLFVKDDNDTSSGSSPLQRILEFCKKQCEGKDANSFAVPIPLISQSLNLDETTVRNCCTTLTDQGFIYPTFDDNNFFAL
chain 3: MASETPRVDPTEISNVNAPVFRIIAQIKSQPTESQLILQSPTISSKNGSEVEMITLNNIRVSMNKTFEIDSWYEFVCRNNDDGELGFLILDAVLCKFKENEDLSLNGVVALQRLCKKYPEIY
notes: largest RPA subunit (RPA70), S. cerevisiae; RPA32 subunit, S. cerevisiae; smallest RPA subunit (RPA14), S. cerevisiae; Heterotrimer expressed from one plasmid; source: E. coli BL21(DE3) Rossetta PlysS (p11d-tscRPA, all three subunits), purified (Ni-NTA, Q-sepharose, heparin); copies: + +
